From PubChem BioAssay AID2058 (Sanford-Burnham Center for Chemical Genomics, 2009)
The entries are a selection whose mix differs from that of the whole data set. Potency and affinity values are given separately. The source made the active and inactive calls.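 Rule for the calls: active = inhibition of at least 50% with at least 30 cells and total cytoplasm GFP at most 10,000,000; inconclusive = under 30 cells or total GFP of 10,000,000 plus; inactive = the rest.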

Amino acid sequences for entries named in this document (tags omitted). A change or cut given only in a name is not applied to a line headed by its entry.
UniProt Q9HC97: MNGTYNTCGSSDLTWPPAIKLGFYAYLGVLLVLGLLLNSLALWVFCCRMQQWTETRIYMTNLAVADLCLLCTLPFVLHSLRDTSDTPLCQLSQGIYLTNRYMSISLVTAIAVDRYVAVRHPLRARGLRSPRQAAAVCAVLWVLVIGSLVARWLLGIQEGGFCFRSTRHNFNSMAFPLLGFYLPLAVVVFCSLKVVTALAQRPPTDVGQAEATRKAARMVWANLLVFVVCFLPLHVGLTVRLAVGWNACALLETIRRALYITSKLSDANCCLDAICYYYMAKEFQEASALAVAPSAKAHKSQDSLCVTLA

molecular target: G-protein coupled receptor 35 (Homo sapiens) (UniProt Q9HC97); experiment: GPR35 antagonists blocking zaprinast-driven arrestin recruitment, primary screen, imaging, U2OS, beta-arrestin-GFP, zaprinast agonist (AID 2058); settings: U2OS GPR35 beta-arrestin-GFP translocation imaging, zaprinast antagonism; at 10 µM; hits give high values

Compound	inhibition
CN(C(=O)Cc1ccccc1)[C@@H]1CC[C@]2(CCCO2)C[C@H]1N1CCCC1	inactive: 15.5%
CCOP1(=S)c2c(C)nn(CCC#N)c2N=C(c2ccc(F)cc2)N1C (centres undefined)	inactive: 17.4%
CS(=O)(=O)c1cc([N+](=O)[O-])c2no[n+]([O-])c2c1	inactive: 2.7%
CCOP1(=S)c2c(C)nn(CCC#N)c2N=C(c2ccccc2F)N1C (centres undefined)	inactive: -10.3%
O=P(Nc1nccs1)(Oc1ccccc1)Oc1ccccc1	inactive: 3.6%
O=P(Nc1nccs1)(c1ccccc1)c1nc2ccccc2s1 (centres undefined)	inactive: -7.9%
O=C(O)COc1ccc([As](=O)(O)O)cc1[N+](=O)[O-]	inactive: 27.6%
Nc1ccccc1[As](=O)(O)c1ccccc1	inactive: 3.5%
CC(C)c1ccc(OP(=O)(Nc2ccccn2)Oc2ccccc2F)cc1 (centres undefined)	inactive: -3.5%
ClCCSc1nnc(-c2cccnc2)o1	inactive: -11.5%
CC(C)NC(=O)NP(=O)(Oc1ccccc1)Oc1ccccc1	inactive: 2.2%
CCN(CC)C(=S)SC(NC=O)C(Cl)(Cl)Cl (centres undefined)	inactive: 24.4%
O=[N+]([O-])c1cc([N+](=O)[O-])c(-c2ccn[nH]2)s1	inactive: -4.4%
C[As](=O)(O)c1cccc(C(=O)O)c1	inactive: 19.8%
O=[As](O)(c1ccc(O)cc1)c1ccccc1O	inactive: 15.5%
Cc1ccc2nc3c(c(C)c2c1)CC(C(Cl)Cl)S3 (centres undefined)	inactive: -6.3%
Cc1ccc(OP(=O)(Nc2ccc([N+](=O)[O-])cn2)Oc2ccc(C)cc2)cc1	inactive: 17.4%

Compound	inhibition
COc1ccc(N/C(=N/P(=O)(N2CCOCC2)N2CCOCC2)N2CCOCC2)cc1	inactive: -2.1%
O=C(OC1CN2CCC1CC2)C12CC3CC(CC(C3)C1)C2 (centres undefined)	inactive: -6.5%
Cc1cc(=O)[nH]c(N[N+](=O)[O-])n1	inactive: -3.9%
COc1ccc2nc(NP(=O)(c3ccccc3)c3ccccc3)sc2c1	inactive: 2%
COc1cc(I)ccc1[As](=O)(O)O	inactive: -9.7%
CCOC(=O)c1ccc(NC(=O)C(C)(CCl)SC)cc1 (centres undefined)	inactive: -1.7%
O=C(OC1CN2CCC1CC2)c1cccc([N+](=O)[O-])c1 (centres undefined)	inactive: 11.5%
CCC(C)N(CC(C)C)C(=S)SC(NC(C)=O)C(Cl)(Cl)Cl (centres undefined)	inactive: -3.7%
COP1(=S)c2c(C)nn(CCC#N)c2N=C(c2ccc(F)cc2)N1C (centres undefined)	inactive: -11.8%
O=C(COc1ccccc1)OC1CN2CCC1CC2 (centres undefined)	inactive: 1.5%
O=C(Nc1ccncc1[N+](=O)[O-])c1ccc([N+](=O)[O-])cc1[N+](=O)[O-]	inactive: 0.7%
CCOC(=O)Nc1cccc([As](=O)(O)O)c1	inactive: 10.2%
O=[N+]([O-])c1ccc(Nc2ccc(Oc3ccc([N+](=O)[O-])cc3[N+](=O)[O-])cc2)c([N+](=O)[O-])c1	inactive: 9.8%
Cc1cc(SC(NC=O)C(Cl)(Cl)Cl)ncn1 (centres undefined)	inactive: -11.9%
CCOC(=O)Nc1ccc([As](=O)(O)O)c(O)c1	inactive: -5.2%
CCCCOc1ccc(C(=O)NCC2(N3CCCCC3)CCCCC2)cc1OC	inactive: 0.9%
Cc1cc(SC(NC(=O)c2ccccc2)C(Cl)(Cl)Cl)nc(C(C)C)n1 (centres undefined)	inactive: -17.8%
